The values that follow come from article PMC3362318 (Invertebrate Neuroscience, 2012).

Amino acid sequences for entries named in this document (tags omitted). Residues count along the entry.
UniProt A9XX24, 19-536: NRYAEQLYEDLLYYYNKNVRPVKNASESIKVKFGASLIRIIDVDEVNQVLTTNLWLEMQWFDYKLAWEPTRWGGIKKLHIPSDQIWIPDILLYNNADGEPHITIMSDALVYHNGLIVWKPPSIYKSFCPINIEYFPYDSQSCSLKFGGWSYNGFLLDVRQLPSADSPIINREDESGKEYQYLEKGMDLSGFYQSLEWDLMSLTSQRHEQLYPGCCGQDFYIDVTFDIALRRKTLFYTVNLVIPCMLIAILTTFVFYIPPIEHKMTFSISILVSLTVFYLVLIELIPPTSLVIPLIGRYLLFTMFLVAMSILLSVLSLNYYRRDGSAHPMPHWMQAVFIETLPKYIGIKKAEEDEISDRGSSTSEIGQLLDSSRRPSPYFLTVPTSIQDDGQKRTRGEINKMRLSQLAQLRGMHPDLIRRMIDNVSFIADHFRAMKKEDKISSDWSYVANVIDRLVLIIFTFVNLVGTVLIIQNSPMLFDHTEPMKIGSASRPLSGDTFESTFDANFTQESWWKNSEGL

Structures are written as SMILES.

One test deals with Hco-L-AChR1 (Haemonchus contortus, UniProt A9XX24+D6MYE9+D6MYF3+D6MYF4). Briefly: two-electrode voltage clamp, Xenopus oocytes, dose-response. It is filed as cell-based. (In general: Two-electrode voltage clamp is typically applied to oocytes expressing channels or transporters.)
In a further test the target is T1, Hco-L-AChR2 (Haemonchus contortus, UniProt D6MYE9+D6MYF3+D6MYF4).
T1 sequence (D6MYE9 21-498): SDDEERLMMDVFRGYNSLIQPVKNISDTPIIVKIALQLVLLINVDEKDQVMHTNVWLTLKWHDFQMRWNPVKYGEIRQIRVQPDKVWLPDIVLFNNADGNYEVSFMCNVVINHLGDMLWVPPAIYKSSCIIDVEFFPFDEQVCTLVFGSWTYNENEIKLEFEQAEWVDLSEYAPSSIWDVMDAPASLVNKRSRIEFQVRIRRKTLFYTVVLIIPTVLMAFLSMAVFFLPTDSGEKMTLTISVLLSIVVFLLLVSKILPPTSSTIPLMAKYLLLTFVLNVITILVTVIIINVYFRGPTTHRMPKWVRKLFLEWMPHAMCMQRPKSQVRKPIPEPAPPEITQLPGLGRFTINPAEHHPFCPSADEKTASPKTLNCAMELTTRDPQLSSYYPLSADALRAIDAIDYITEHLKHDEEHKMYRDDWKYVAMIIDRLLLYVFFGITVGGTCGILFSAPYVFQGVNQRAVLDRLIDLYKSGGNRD
T1 sequence (D6MYF3 20-512): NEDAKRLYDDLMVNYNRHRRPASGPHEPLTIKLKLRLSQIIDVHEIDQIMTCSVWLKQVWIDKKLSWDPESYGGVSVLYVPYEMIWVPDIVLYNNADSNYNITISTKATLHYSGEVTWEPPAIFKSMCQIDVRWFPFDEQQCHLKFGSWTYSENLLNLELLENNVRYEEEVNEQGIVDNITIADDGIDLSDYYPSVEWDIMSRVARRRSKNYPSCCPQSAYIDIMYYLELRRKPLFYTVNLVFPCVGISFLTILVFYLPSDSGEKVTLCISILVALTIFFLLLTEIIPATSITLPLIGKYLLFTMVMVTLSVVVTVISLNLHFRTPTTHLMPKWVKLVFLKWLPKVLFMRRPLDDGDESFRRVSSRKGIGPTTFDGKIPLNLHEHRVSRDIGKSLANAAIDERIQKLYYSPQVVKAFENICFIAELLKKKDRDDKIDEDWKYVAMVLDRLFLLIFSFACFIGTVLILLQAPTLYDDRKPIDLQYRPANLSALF
T1 sequence (D6MYF4 22-504): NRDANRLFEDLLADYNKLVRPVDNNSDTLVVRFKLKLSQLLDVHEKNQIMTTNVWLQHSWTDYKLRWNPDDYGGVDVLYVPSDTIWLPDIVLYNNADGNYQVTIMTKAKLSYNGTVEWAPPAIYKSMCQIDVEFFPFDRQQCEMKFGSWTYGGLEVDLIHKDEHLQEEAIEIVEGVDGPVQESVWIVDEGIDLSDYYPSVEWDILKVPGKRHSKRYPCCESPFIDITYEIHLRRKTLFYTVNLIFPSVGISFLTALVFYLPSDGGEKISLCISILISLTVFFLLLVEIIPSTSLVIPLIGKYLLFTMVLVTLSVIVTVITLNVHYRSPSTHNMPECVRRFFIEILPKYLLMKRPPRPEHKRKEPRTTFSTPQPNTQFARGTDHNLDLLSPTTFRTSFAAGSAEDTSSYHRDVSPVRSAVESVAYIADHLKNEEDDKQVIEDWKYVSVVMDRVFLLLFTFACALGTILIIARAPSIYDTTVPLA
The test is described as follows: two-electrode voltage clamp, Xenopus oocytes, peak current. It is filed as cell-based. As to conditions: agonist; -60 mV, 1 mM external CaCl2, pH 7.3, BAPTA-AM treated.

As a reminder, the EC50 is the concentration at which the effect is half-maximal. A high value points to a less potent agent. Take `CC(=O)OCC[N+](C)(C)C` [Ach, acetylcholine]: the EC50 on Hco-L-AChR1 was 5.8 ± 0.5 µM. Also, on Hco-L-AChR2, the “two-electrode voltage clamp, Xenopus oocytes, peak current” value is given as “Hco-L-AChR2 potency series was: pyrantel > acetylcholine > nicotine > levamisole”.
